Screens: PubChem, National Center for Advancing Translational Sciences (NCATS)
DT40 TDP1 no CPT: qHTS for Inhibitors of human tyrosyl-DNA phosphodiesterase 1 (TDP1): qHTS in cells in absence of CPT | DT40 Tdp1-/- hTDP1 cells, no CPT, ATP luminescence, 48 h | Potency, µM (series often up to 46.2 µM), for the others: at the top dose activity change, negative = growth inhibition, usual class: inhibitors | 420,000 tested, 15% active | AID 686978, 2013; further: potency means the concentration at half of the fitted maximal effect; on the % scale 0 is the no-effect control and ±100 the full control effect; nearly all actives have a fitted effect of over 55% in size
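DT40 Tdp1-/-;hTDP1 cells, no CPT (DMSO vehicle only), 400 cells/well; compounds pin-transferred; ≥48 hr, 37 °C; CellTiter-Glo 30 min RT dark, luminescence read.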
miR-21 FLuc: miR-21 reporter, rising signal | HeLa miR-21 FLuc reporter, luciferase, 48 h | Potency, µM (highest dose often 38.3 µM), for inactives: at the top dose reporter change, positive = more light | 340,000 tested, under 10 active | AID 2288; active = well fitted rising curve with a large enough effect; inconclusive = small, poorly fitted or top-dose-only effect; inactive = no such curve, though single readings can be large or run the other way;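 further: % of control where 0% means no effect; miR-21 action dims this reporter so a rising signal means less miR-21 action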
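HeLa miR-21-FLuc reporter line, endogenous miR-21; 2000 cells/well in DMEM/10% FBS; compound titration up to ~40uM final, 48 h, 37 degree Celsius; luciferase detection reagent, 15 min lysis, CCD luminescence.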
uPA surface inh: blocks generation of uPA at the cell surface | cell surface uPA generation assay, qHTS | Potency, µM (highest dose often 38.3 µM), for the others: at the highest dose activity change, negative = inhibition, usual class: inhibitors | 330,000 tested, 0.31% active | AID 540303; active means well fitted inhibition curve with a large enough effect; inconclusive means small, poorly fitted or top-dose-only effect; inactive means no such curve, though single readings can be large or run the other way; tested in mouse RAW 264.7 cells; further: potency means the concentration at half of the fitted maximal effect; on the % scale 0 is the no-effect control and ±100 the full control effect; nearly all actives have a fitted effect of over 55% in size
TDP1 inh: blocks human tyrosyl-DNA phosphodiesterase 1. Q9NUW8. 350,000 tested, 0.28% active. recombinant TDP1, AlphaScreen DNA substrate cleavage. Potency, µM (doses to about 130 µM), without a hit: top-dose activity change, negative = inhibition, hits mostly inhibitors; further: potency means the concentration at half of the fitted maximal effect; on the % scale 0 is the no-effect control and ±100 the full control effect; nearly all actives have a fitted effect of over 40% in size
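Here, a 5' biotin and 3' phosphotyrosine-FITC DNA oligonucleotide reports Tdp1 activity: intact substrate bridges AlphaScreen beads, while cleavage leaves a 3' phosphate and drops signal. All incubations at room temperature.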
TDP1 cell CPT: DT40-hTDP1 cell growth loss with CPT; chicken DT40 Tdp1-/-;hTDP1 cells + 20 nM CPT, ATP luminescence, 48 h; 420,000 tested, 12% active; AID 686979; Potency, µM (titrated, usually from 46.2 µM), for the others: at the highest dose activity change, negative = growth inhibition, hits mostly inhibitors; further: potency means the concentration at half of the fitted maximal effect; on the % scale 0 is the no-effect control and ±100 the full control effect; nearly all actives have a fitted effect of over 55% in size
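Cell growth measured by CellTiter-Glo luminescence after a minimum 48 h, 37 C compound exposure with 20 nM CPT in Tdp1-knockout DT40 cells stably expressing hTDP1, seeded 400/well; qHTS titration format.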
An asterisk follows results filed as active; ? = inconclusive; . = no result given; ! = not confirmed by another sample; [ ] = remark or other dose. Shown are actives, neighbours in structure and some others; about 16% of the full set was active somewhere. Unless noted, the call rests on the fitted dose curve; in most records, active means well fitted curve in the direction sought with a large enough effect; inconclusive means small, poorly fitted or top-dose-only effect, or another doubt; inactive means no such curve, though single readings can be large; an effect the other way counts as inactive or inconclusive.

mol	DT40 TDP1 no CPT	miR-21 FLuc	uPA surface inh	TDP1 inh	TDP1 cell CPT
Oc1ccc(Cc2ccccc2)c2cccnc12	2.1µM*	.	-15%	.	4.6µM*
Oc1ccc(CNc2ccccc2F)c2cccnc12	2.1µM*	?	-7%	8%	2.1µM*
CC(C)C(=O)N=C1NC(=O)CS1	22%	-5%	-4%	5%	1%
O=C(NCCc1csc(-c2ccccc2)n1)c1ccc(Br)o1	21µM*	-1%	4%	7%	?
O=C(NCCc1csc(-c2cccnc2)n1)c1ccc(Br)o1	18µM*	-10%	-18%	3%	?
O=C(NC1CCCCCC1)c1[nH]c(C(F)(F)F)nc1-c1ccccc1	?	.	.	.	-27%
Cc1ncc([N+](=O)[O-])n1CC(=O)N/N=C/c1ccccc1F	-7%	-3%	17%	5%	-7%
COc1ccc(C2NCCc3c2[nH]c2ccccc32)cc1COc1ccc(F)cc1 (stereo not drawn)	21µM*	?	?	.	?
COc1ccc(C2NCCc3c2[nH]c2ccccc32)cc1CN1CCc2cc(OC)c(OC)cc2C1C (stereo not drawn)	18µM*	5%	-6%	.	?
COc1ccc(/C=N/NC(=O)c2cc(OC)c(OC)c(OC)c2)cc1CN1CCc2cc(OC)c(OC)cc2C1C (stereo not drawn)	?	18%	-9%	3%	?

Later entries
mol	DT40 TDP1 no CPT	miR-21 FLuc	uPA surface inh	TDP1 inh	TDP1 cell CPT
CC(=O)Nc1ccc(NC(=O)C(C)OC(=O)CNS(=O)(=O)c2ccc(Br)cc2Cl)cc1 (stereo not drawn)	23µM*	-2%	-5%	3%	-13%
O=C(CN1CCc2cc3c(cc2C1)OCCCO3)Nc1c(F)cccc1F	?	7%	-9%	6%	23µM*
O=C(CN1CCc2cc3c(cc2C1)OCCCO3)Nc1ccc(F)cc1	?	6%	2%	4%	?
CCC1CN(C(=O)NCc2ccc(C)cc2)c2cc(Cl)ccc2O1 (stereo not drawn)	23µM*	1%	-3%	0%	21µM*
CCC1CN(C(=O)NCc2ccc(C)cc2)c2cc(C)ccc2O1 (stereo not drawn)	15µM*!	?	5%	5%	23µM*
CCC1CN(C(=O)NCc2ccc(F)cc2)c2cc(Cl)ccc2O1 (stereo not drawn)	?	9%	6%	5%	?
CCc1ccccc1NC(=O)N1CC(CC)Oc2ccc(Cl)cc21 (stereo not drawn)	?	-41%	.	-10%	21µM*
Cc1cnc(C(=O)OCC(=O)Nc2ccc(C)c(S(=O)(=O)N3CCOCC3)c2)cn1	-4%	.	0%	-2%	-2%
Cc1ccc(C2CC(c3cccc(Br)c3)Nc3nnnn32)cc1 (stereo not drawn)	-19%	-2%	-3%	-5%	-26%
COc1cccc(CNC(=O)CCNS(=O)(=O)c2ccc3c(c2)oc(=O)n3C)c1	-16%	0%	-5%	3%	?

(listing goes on)
mol	DT40 TDP1 no CPT	miR-21 FLuc	uPA surface inh	TDP1 inh	TDP1 cell CPT
O=C(NCc1ccccc1C(F)(F)F)C1CCC(=O)N(CCCc2ccccc2)C1 (stereo not drawn)	29µM*	7%	-4%	1%	?
O=C(NCCc1cccc(F)c1)C1CCC(=O)N(CCCc2ccccc2)C1 (stereo not drawn)	?	-14%	5%	3%[56.1 µM]	18µM*
O=C(NCc1ccccc1OC(F)(F)F)C1CCC(=O)N(Cc2ccccn2)C1 (stereo not drawn)	?	-2%	6%	3%	16µM*
O=C(NCCc1ccccc1)C1CCC(=O)N(CCCN2CCCC2=O)C1 (stereo not drawn)	23%	1%	12%	.	-11%
O=C(NCCc1c[nH]c2ccccc12)C1CCC(=O)N(CCc2cccc(F)c2)C1 (stereo not drawn)	8.2µM*	1%	-4%	.	?
NC(=S)N=Nc1c(O)n(CCCl)c2ccc(Br)cc12	23µM*	18%	2%	3%	16µM*
C/C(Cl)=C\Cn1c(O)c(N=O)c2ccccc21	-21%	-2%	3%	0%	-15%
C/C(Cl)=C\Cn1c(O)c(N=NC(N)=S)c2cc(Br)ccc21	1.6µM*	21%	?	12%	1.3µM*
NC(=S)N/N=C1\CCOc2ccc(Cl)cc21	?	?	-10%	4%	18µM*
NC(=S)NN=C1c2cc(S(=O)(=O)N3CCOCC3)ccc2-c2ccc(S(=O)(=O)N3CCOCC3)cc21	-4%	-7%	-8%	9%	-1%

Further records
mol	DT40 TDP1 no CPT	miR-21 FLuc	uPA surface inh	TDP1 inh	TDP1 cell CPT
Cc1cc(C)c2nc(NCCCNC(=S)NCCCN(C)C)c(C#N)cc2c1	5.8µM*	?	?	0%	5.8µM*
COCCCNC(=S)NCCNc1nc2cc(C)cc(C)c2cc1C#N	?	-4%	.	2%	?
CCOCCCNC(=S)NCCNc1nc2c(C)cccc2cc1C#N	?	15%	6%	-3%	?
Cc1ccc2cc(C#N)c(NCCNC(=O)C3CC3)nc2c1C	7.3µM*	-7%	-4%	0%	15µM*
CCOCCCNC(=S)NCCCNc1nc2c(C)cc(C)cc2cc1C#N	18µM*	-20%	-3%	-6%	8.2µM*
Cc1ccc2cc(C#N)c(NCCNC(=S)NCCCN(C)C)nc2c1C	26µM*	?	10µM*	5%	?
O=C(NCCCCc1ccccc1)c1cccc(Br)c1	-7%	-20%	4%	0%	11%
CCOc1ccc(NC(=O)c2cccc(N3CCCS3(=O)=O)c2)cc1	-28%	-1%	.	-3%	-25%
CNC[C@@H](C)NC[C@@H](Cc1ccccc1)NCCc1ccccc1	4.6µM*	0%	-8%	.	8.2µM*
CCC[C@H](CN[C@@H](CNC)[C@H](C)O)NCCc1ccc(OC)cc1	-1%	-1%	-12%	.	-7%

The list goes on:
mol	DT40 TDP1 no CPT	miR-21 FLuc	uPA surface inh	TDP1 inh	TDP1 cell CPT
CC1CCN(C(=O)CSc2nnc(-c3cccnc3)n2C2CCCCC2)CC1	-25%	1%	.	2%	-19%
O=C(CSc1nnc(-c2ccc(Br)cc2)n1C1CCCCC1)N1CCCC1	23µM*	-26%	-2%	-1%[56.1 µM]	?
CC(C)(C)c1ccc(-c2nnc(SCCC#N)n2C2CCCC2)cc1	18µM*	11%	4%	-1%	18µM*
O=C(CSc1nnc(-c2ccc(Cl)cc2Cl)n1C1CCCCC1)N1CCCC1	21µM*	1%	6%	2%	23µM*
O=C(CSc1nnc(-c2ccccc2F)n1C1CCCCC1)N1CCCC1	-23%	0%	3%	4%	-24%
C=CCNCCCCOc1ccc(OCc2ccccc2)cc1	23µM*	-71%	11µM*	2%	?
COCCCNCCCCOc1ccc(OCc2ccccc2)cc1	23µM*	-66%	?	-7%	?
CCC(C)c1ccccc1OCCCCN1CCCC1 (stereo not drawn)	?	-1%	6%	3%	?
